{
  "sequences": {"note": "By UniProt entry, the sequences of proteins in these tests, tags left out.", "UniProt Q16539, whole entry": "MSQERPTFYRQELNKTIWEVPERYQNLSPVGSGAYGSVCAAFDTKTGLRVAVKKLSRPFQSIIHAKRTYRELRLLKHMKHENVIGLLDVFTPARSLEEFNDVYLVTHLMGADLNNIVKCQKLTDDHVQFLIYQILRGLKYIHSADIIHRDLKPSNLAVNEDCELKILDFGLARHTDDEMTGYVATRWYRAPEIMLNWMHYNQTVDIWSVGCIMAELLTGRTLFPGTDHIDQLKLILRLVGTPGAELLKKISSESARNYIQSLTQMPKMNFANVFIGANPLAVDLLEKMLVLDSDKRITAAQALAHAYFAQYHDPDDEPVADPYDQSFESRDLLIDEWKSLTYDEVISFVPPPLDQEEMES"},
  "source": "patent US12636290B2",
  "about": "“BET inhibitors for modulating DUX4 expression in FSHD” (Saint Louis University, priority 2018, dated 2026)",
  "origin": "cited, not measured here",
  "target": "p38α (Homo sapiens, UniProt Q16539)",
  "settings": "p38α versus p38β; cited from earlier work",
  "data": [
    {"smiles": "Cn1c(=O)c(Oc2ccc(F)cc2F)cc2cnc(NC(CCO)CCO)nc21", "note": "[Pamapimod]", "values": [
      {"measurement": "selective over p38β", "value": "p38α, 34X selective over p38β"}
    ]}
  ]
}
